Source: paper PMC8175350, “Drug repurposing screens identify chemical entities for the development of COVID-19 interventions” (Nature Communications, 2021)

Experiments:
Conditions in all cases: human
HEK293T = tested on: HEK293T
Calu-3 cells = tested on: Calu-3 cells
HepG2 = tested on: HepG2

`NC(=O)C1CCN(CCCN2c3ccccc3Sc3ccc(Cl)cc32)CC1` [Pipamazine] was tested, and the “HEK293T 72-hour cytotoxicty Sinf Average” value (HEK293T) was -104%, the “Calu-3 uninfected cytotoxicity Sinf Average” value (Calu-3 cells) was -102% and the “HepG2 72-hour cytotoxicity Sinf Average” value (HepG2) was -100%.
